Measurements: patent EP4837910A1, “ISOXAZOLINE COMPOUND AND PREPARATION METHOD THEREFOR, HERBICIDAL COMPOSITION, AND USE” (dated 2026)

Tests used:
[1] = system: Triticum aestivum; assay: Pre-emergence test, crop damage (greenhouse, sprayed immediately after sowing); conditions: Dosage 240 g a.i./ha, after 4 weeks in greenhouse, fresh weight control rate
[2] = system: Zea mays; assay: as above; conditions: Dosage 240 g a.i./ha, after 4 weeks in greenhouse, fresh weight control rate
[3] = system: Monocotyledonous and dicotyledonous weed; assay: Pre-emergence test on weeds (greenhouse, sprayed immediately after sowing); conditions: Dosage 240 g a.i./ha, after 4 weeks in greenhouse, fresh weight control rate
[4] = system: Monocotyledonous and dicotyledonous weed; assay: Post-emergence test on weeds (greenhouse, spray tower); conditions: after 3 weeks of cultivation in a greenhouse, fresh weight control rate

C=CC1(C(=O)N[C@@H](C)C(=O)N(C)OCC2CCCO2)CC(c2cc(C)cc(Cl)c2)=NO1 (some centres unmarked)
activity level of plant damage (growth control rate), Triticum aestivum [1]: 0 | activity level of plant damage (growth control rate), Zea mays [2]: 0 | activity level of plant damage (growth control rate), Setaria viridis [3]: 5 (Level 5: growth control rate greater than or equal to 50% and less than 70%)

C=C[C@@]1(C(=O)N[C@H](C)C(=O)NOC)CC(c2cc(Cl)cc(C(F)(F)F)c2)=NO1
activity level of plant damage (growth control rate), Triticum aestivum [1]: 0 | activity level of plant damage (growth control rate), Zea mays [2]: 0 | activity level of plant damage (growth control rate), Setaria viridis [3]: 9

CC[C@]1(C(=O)N[C@@H](C)C(=O)N(C)OC)CC(c2cc(Cl)cc(Cl)c2)=NO1
activity level of plant damage (growth control rate), Triticum aestivum [1]: 1 (Level 1: growth control rate less than 10%) | activity level of plant damage (growth control rate), Zea mays [2]: 1 (Level 1: growth control rate less than 10%) | activity level of plant damage (growth control rate), Digitaria sanguinalis [3]: 9 | activity level of plant damage (growth control rate), Lolium multiflorum [3]: 9 | activity level of plant damage (growth control rate), Setaria viridis [3]: 9

C=C[C@@]1(C(=O)N[C@@H](CC2CC2)C(=O)N(C)OC)CC(c2cc(F)cc(F)c2)=NO1
activity level of plant damage (growth control rate), Triticum aestivum [1]: 0 | activity level of plant damage (growth control rate), Zea mays [2]: 0 | activity level of plant damage (growth control rate), Descurainia sophia [3]: 5 (Level 5: growth control rate greater than or equal to 50% and less than 70%)

C=C[C@@]1(C(=O)N[C@@H](C)C(=O)N(C)OC)CC(c2cc(C)cc(F)c2)=NO1
activity level of plant damage (growth control rate), Triticum aestivum [1]: 2 (Level 2: growth control rate greater than or equal to 10% and less than 20%) | activity level of plant damage (growth control rate), Zea mays [2]: 0 | activity level of plant damage (growth control rate), Digitaria sanguinalis [3]: 5 (Level 5: growth control rate greater than or equal to 50% and less than 70%) | activity level of plant damage (growth control rate), Lolium multiflorum [3]: 5 (Level 5: growth control rate greater than or equal to 50% and less than 70%) | activity level of plant damage (growth control rate), Setaria viridis [3]: 5 (Level 5: growth control rate greater than or equal to 50% and less than 70%)

C=CC1(C(=O)N[C@@H](C)C(=O)N(C)OCC)CC(c2cc(C)cc(Cl)c2)=NO1 (some centres unmarked)
activity level of plant damage (growth control rate), Triticum aestivum [1]: 0 | activity level of plant damage (growth control rate), Zea mays [2]: 0 | activity level of plant damage (growth control rate), Digitaria sanguinalis [3]: 8 (Level 8: growth control rate greater than or equal to 90% and less than 100%) | activity level of plant damage (growth control rate), Setaria viridis [3]: 6 (Level 6: growth control rate greater than or equal to 70% and less than 80%)

C=C[C@@]1(C(=O)N[C@H](C)C(=O)N(C)OC)CC(c2cc(Cl)cc(Cl)c2)=NO1
activity level of plant damage (growth control rate), Triticum aestivum [1]: 2 (Level 2: growth control rate greater than or equal to 10% and less than 20%) | activity level of plant damage (growth control rate), Zea mays [2]: 0 | activity level of plant damage (growth control rate), Descurainia sophia [3]: 6 (Level 6: growth control rate greater than or equal to 70% and less than 80%)

C=C(C)[C@@]1(C(=O)N[C@@H](C)C(=O)N(CC)OC)CC(c2cc(F)cc(F)c2)=NO1
activity level of plant damage (growth control rate), Triticum aestivum [1]: 2 (Level 2: growth control rate greater than or equal to 10% and less than 20%) | activity level of plant damage (growth control rate), Digitaria sanguinalis [3]: 9 | activity level of plant damage (growth control rate), Setaria viridis [3]: 9

CC[C@@]1(C(=O)N[C@@H](C)C(=O)N(C)OC)CC(c2cc(F)cc(OC)c2)=NO1
activity level of plant damage (growth control rate), Triticum aestivum [1]: 0 | activity level of plant damage (growth control rate), Zea mays [2]: 0 | activity level of plant damage (growth control rate), Digitaria sanguinalis [3]: 7 (Level 7: growth control rate greater than or equal to 80% and less than 90%) | activity level of plant damage (growth control rate), Setaria viridis [3]: 5 (Level 5: growth control rate greater than or equal to 50% and less than 70%)

C=C[C@@]1(C(=O)N[C@@H](C)C(=O)N(C)OC)CC(c2ccc(F)c(F)c2)=NO1
activity level of plant damage (growth control rate), Triticum aestivum [1]: 1 (Level 1: growth control rate less than 10%) | activity level of plant damage (growth control rate), Zea mays [2]: 0 | activity level of plant damage (growth control rate), Descurainia sophia [3]: 5 (Level 5: growth control rate greater than or equal to 50% and less than 70%)

CC[C@]1(C(=O)N[C@@H](C)C(=O)N(C)OC)CC(c2cc(C(F)(F)F)cc(C(F)(F)F)c2)=NO1
activity level of plant damage (growth control rate), Triticum aestivum [1]: 0 | activity level of plant damage (growth control rate), Zea mays [2]: 0 | activity level of plant damage (growth control rate), Digitaria sanguinalis [3]: 9 | activity level of plant damage (growth control rate), Lolium multiflorum [3]: 5 (Level 5: growth control rate greater than or equal to 50% and less than 70%) | activity level of plant damage (growth control rate), Setaria viridis [3]: 9

C=C[C@]1(C(=O)N[C@@H](C)C(=O)N(C)OC)CC(c2cc(C)cc(F)c2)=NO1
activity level of plant damage (growth control rate), Triticum aestivum [1]: 2 (Level 2: growth control rate greater than or equal to 10% and less than 20%) | activity level of plant damage (growth control rate), Descurainia sophia [3]: 8 (Level 8: growth control rate greater than or equal to 90% and less than 100%) | activity level of plant damage (growth control rate), Digitaria sanguinalis [3]: 9 | activity level of plant damage (growth control rate), Lolium multiflorum [3]: 9 | activity level of plant damage (growth control rate), Setaria viridis [3]: 9 | Avena fatua, activity level of plant damage (growth control rate) ([4]; Dosage 240 g a.i./ha): 6 (Level 6: growth control rate greater than or equal to 70% and less than 80%)

C=C[C@]1(C(=O)N[C@@H](C)C(=O)N(C)OC)CC(c2cc(C)cc(Cl)c2)=NO1
activity level of plant damage (growth control rate), Triticum aestivum [1]: 2 (Level 2: growth control rate greater than or equal to 10% and less than 20%) | activity level of plant damage (growth control rate), Zea mays [2]: 0 | activity level of plant damage (growth control rate), Digitaria sanguinalis [3]: 9 | activity level of plant damage (growth control rate), Lolium multiflorum [3]: 9 | activity level of plant damage (growth control rate), Setaria viridis [3]: 9

C=CC1(C(=O)N[C@@H](C)C(=O)N(C)OC)CC(c2cc(F)cc(N(C)OC)c2)=NO1 (some centres unmarked)
activity level of plant damage (growth control rate), Triticum aestivum [1]: 0 | activity level of plant damage (growth control rate), Zea mays [2]: 0 | activity level of plant damage (growth control rate), Descurainia sophia [3]: 5 (Level 5: growth control rate greater than or equal to 50% and less than 70%)

CC[C@@]1(C(=O)N[C@@H](C)C(=O)N(C)OC)CC(c2cc(Br)cc(Br)c2)=NO1
activity level of plant damage (growth control rate), Triticum aestivum [1]: 0 | activity level of plant damage (growth control rate), Zea mays [2]: 0 | activity level of plant damage (growth control rate), Descurainia sophia [3]: 9

C=C[C@]1(C(=O)N[C@@H](C)C(=O)N(C)OC)CC(c2cc(Cl)c(Cl)c(C(F)(F)F)c2)=NO1
activity level of plant damage (growth control rate), Triticum aestivum [1]: 0 | activity level of plant damage (growth control rate), Zea mays [2]: 0 | activity level of plant damage (growth control rate), Digitaria sanguinalis [3]: 7 (Level 7: growth control rate greater than or equal to 80% and less than 90%)

C=CC1(C(=O)N[C@@H](C)C(=O)N(C)OC)CC(c2cccc(F)c2)=NO1 (some centres unmarked)
activity level of plant damage (growth control rate), Triticum aestivum [1]: 2 (Level 2: growth control rate greater than or equal to 10% and less than 20%) | activity level of plant damage (growth control rate), Zea mays [2]: 2 (Level 2: growth control rate greater than or equal to 10% and less than 20%) | activity level of plant damage (growth control rate), Lolium multiflorum [3]: 9

C=C(C)[C@@]1(C(=O)N[C@@H](C)C(=O)N(C)OC)CC(c2cc(Cl)cc(OC(F)(F)F)c2)=NO1
activity level of plant damage (growth control rate), Triticum aestivum [1]: 0 | activity level of plant damage (growth control rate), Digitaria sanguinalis [3]: 9 | activity level of plant damage (growth control rate), Lolium multiflorum [3]: 5 (Level 5: growth control rate greater than or equal to 50% and less than 70%) | activity level of plant damage (growth control rate), Setaria viridis [3]: 9

C=C[C@]1(C(=O)N[C@@H](C)C(=O)N(C)OC)CC(c2cc(Cl)cc(Cl)c2)=NO1
activity level of plant damage (growth control rate), Zea mays [2]: 0 | activity level of plant damage (growth control rate), Descurainia sophia [3]: 8 (Level 8: growth control rate greater than or equal to 90% and less than 100%) | activity level of plant damage (growth control rate), Digitaria sanguinalis [3]: 9 | activity level of plant damage (growth control rate), Lolium multiflorum [3]: 9 | activity level of plant damage (growth control rate), Setaria viridis [3]: 9 | Avena fatua, activity level of plant damage (growth control rate) ([4]; Dosage 120 g a.i./ha): 9

C=C[C@]1(C(=O)N[C@@H](C)C(=O)NOC)CC(c2cc(F)cc(F)c2)=NO1
activity level of plant damage (growth control rate), Zea mays [2]: 1 (Level 1: growth control rate less than 10%) | activity level of plant damage (growth control rate), Digitaria sanguinalis [3]: 5 (Level 5: growth control rate greater than or equal to 50% and less than 70%) | activity level of plant damage (growth control rate), Lolium multiflorum [3]: 8 (Level 8: growth control rate greater than or equal to 90% and less than 100%) | activity level of plant damage (growth control rate), Setaria viridis [3]: 5 (Level 5: growth control rate greater than or equal to 50% and less than 70%) | Avena fatua, activity level of plant damage (growth control rate) ([4]; Dosage 240 g a.i./ha): 9 | Digitaria sanguinalis, activity level of plant damage (growth control rate) ([4]; Dosage 240 g a.i./ha): 9 | Echinochloa crus-galli, activity level of plant damage (growth control rate) ([4]; Dosage 240 g a.i./ha): 8 (Level 8: growth control rate greater than or equal to 90% and less than 100%)

C=C[C@]1(C(=O)N[C@@H](C)C(=S)N(C)OC)CC(c2cc(F)cc(F)c2)=NO1
activity level of plant damage (growth control rate), Zea mays [2]: 2 (Level 2: growth control rate greater than or equal to 10% and less than 20%) | activity level of plant damage (growth control rate), Digitaria sanguinalis [3]: 9 | activity level of plant damage (growth control rate), Lolium multiflorum [3]: 6 (Level 6: growth control rate greater than or equal to 70% and less than 80%) | activity level of plant damage (growth control rate), Setaria viridis [3]: 9 | Avena fatua, activity level of plant damage (growth control rate) ([4]; Dosage 240 g a.i./ha): 8 (Level 8: growth control rate greater than or equal to 90% and less than 100%)

C=C(C)[C@]1(C(=O)N[C@@H](C)C(=O)NOCCCF)CC(c2cc(F)cc(F)c2)=NO1
activity level of plant damage (growth control rate), Zea mays [2]: 2 (Level 2: growth control rate greater than or equal to 10% and less than 20%) | activity level of plant damage (growth control rate), Digitaria sanguinalis [3]: 9 | activity level of plant damage (growth control rate), Setaria viridis [3]: 9 | Amaranthus retroflexus, activity level of plant damage (growth control rate) ([4]; Dosage 60 g a.i./ha): 8 (Level 8: growth control rate greater than or equal to 90% and less than 100%) | Digitaria sanguinalis, activity level of plant damage (growth control rate) ([4]; Dosage 60 g a.i./ha): 8 (Level 8: growth control rate greater than or equal to 90% and less than 100%) | Echinochloa crus-galli, activity level of plant damage (growth control rate) ([4]; Dosage 60 g a.i./ha): 8 (Level 8: growth control rate greater than or equal to 90% and less than 100%)
